Experimental findings from PubChem BioAssay AID524 (The Scripps Research Institute Molecular Screening Center, 2006) are described below.

SMILES strings stand for the structures. This is a selection; strong and weak results do not stand in their true shares. Activity calls are given as the source filed them.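 Rule for the calls: active = inhibition above the screen-wide mean inhibition plus 3 SD (cut at about 21% in these data); inactive = the rest.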

The target in the assay is cAMP-dependent protein kinase catalytic subunit alpha (Homo sapiens) (UniProt P17612). The assay is described as follows: PKA catalytic subunit kinase inhibition – biochemical, ATP-depletion luminescence, Kemptide substrate, primary screen (AID 524). The note with it: PKA Kemptide phosphorylation, Kinase-Glo ATP luminescence; at 6 µM; active compounds read high. A general note: Kinase-Glo measures the ATP left after a reaction by luminescence.
For `Cc1ccccc1NP(C)(=O)Nc1ccccc1C`, the inhibition (in general, the relative decrease from the control value, in per cent) was inactive: 12.1%.
For the compound `CP(=O)(Nc1ccc2c(c1)OCCO2)Oc1ccccc1` (stereo not drawn), the inhibition is inactive: 6.2%.
In the case of `CCOP(C)(=S)SCC(=O)NC(C)(CC)C(=O)O` (stereo not drawn), the inhibition is inactive: 0.3%.
The value for `CN(C)CCOC(=O)C(O)(c1ccccc1)C1CCCCC1` (stereo not drawn) was inactive: -9.6%; that for `CP(=O)(Nc1ccccc1F)Oc1ccccc1` (stereo not drawn) was inactive: 14.6%; that for `CP(=O)(Nc1ccccn1)Oc1ccccc1` (stereo not drawn) was inactive: 4.3%.
Take `Cc1nc2ccc3ccccc3c2o1.O=[N+]([O-])c1cc([N+](=O)[O-])c(O)c([N+](=O)[O-])c1`: the inhibition is inactive: -1%.
Take `COc1ccccc1OP(C)(=O)Nc1ccc(C)c(C)c1` (stereo not drawn): the inhibition is inactive: 9.8%.
To `CP(=O)(Oc1ccccc1)N1CCOC1=O` (stereo not drawn) belongs inactive: 6.3%; to `COc1ccccc1OP(C)(=O)Nc1c(C)n(C)n(-c2ccccc2)c1=O` (stereo not drawn), inactive: 9.9%.
For the compound `CCN(CC)CC(O)COC(=O)C(O)(c1ccccc1)C1CCCCC1` (stereo not drawn), the inhibition is inactive: 6.4%.
The value for `CCOP(C)(=S)SCC(=O)NC(C)C(=O)O` (stereo not drawn) was inactive: 5.5%.
`CP(=O)(NC(=O)Nc1ccccc1)Oc1ccccc1` (stereo not drawn): the inhibition is inactive: -2.9%.
For `CP(=S)(Nn1cnnc1)Oc1ccccc1` (stereo not drawn), the inhibition is inactive: 4.8%.
For the compound `COc1ccccc1OP(C)(=O)Nc1ccc(C)cc1` (stereo not drawn), the inhibition is inactive: 2%.
`Cc1ccc(NP(C)(=O)Oc2ccccc2)c(C)c1` (stereo not drawn): the inhibition was inactive: 8.1%.
The value for `Cc1ccc(C)c(NP(C)(=O)Oc2ccccc2)c1` (stereo not drawn) was inactive: 6.4%; that for `Cc1nc2ccc3ccccc3c2s1.O=[N+]([O-])c1cc([N+](=O)[O-])c(O)c([N+](=O)[O-])c1` was inactive: 5.3%.
